System: SOD1^G93A mice
Assay: In vivo ALS model muscle physiology study with 2A10 and riluzole
Design: species or system mouse
Details: 30 mg/kg (2A10 HA weekly i.p.; riluzole in drinking water from day 65), vs SOD-B vehicle
Protocol: Fresh solutions were prepared once a week with the total consumed volume measured in order to ensure a constant daily and weekly dose.

Nc1nc2ccc(OC(F)(F)F)cc2s1 [Riluzole, 2-Amino-6-(trifluoromethoxy)benzothiazole]
EDL motor unit number estimation (MUNE), high dose: clearly efficacious

Reference: patent US20110268729A1, “TREATMENT OF AMYOTROPHIC LATERAL SCLEROSIS BY NOGO-A-ANTAGONIST” (priority 2008, published 2011)
